# AlphaSeq binding of Ab-14 heavy chain variants to a spike HR2 peptide

Data: MIT Lincoln Laboratory AlphaSeq set, Engelhart et al. 2022, doi:10.1038/s41597-022-01779-4, as distributed in FLAb.

Antigen: PDVDLGDISGINAS, a 14-residue peptide of the SARS-CoV-2 spike HR2 region.

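Phage display of a naive human antibody library on the peptide gave the parent. In library AAYL49, one, two or three CDR residues were substituted; doubles and triples were drawn at random. Affinity was read by AlphaSeq, a pooled yeast mating assay with surface-displayed partners. Binding brings cells together so that they mate, and sequencing counts the barcode pairs among the diploids. Scores were corrected for input abundance and mapped to Kd with protein pairs of known affinity run in the same pool. Mating was done three times.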

Parent scFv Ab-14: VH joined to VL by three GGGGS repeats. Changes lie in the heavy chain CDRs alone.
VH: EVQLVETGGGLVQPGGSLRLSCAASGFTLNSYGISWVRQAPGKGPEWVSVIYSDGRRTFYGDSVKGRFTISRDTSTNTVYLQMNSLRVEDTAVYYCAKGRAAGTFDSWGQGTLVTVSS
VL: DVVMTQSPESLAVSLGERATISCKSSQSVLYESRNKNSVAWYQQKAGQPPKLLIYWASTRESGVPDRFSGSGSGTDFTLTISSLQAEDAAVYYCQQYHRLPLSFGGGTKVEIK

Each variant is given by its three heavy chain CDRs, as the data file delimits them; those of the parent are GFTLNSYGIS, VIYSDGRRTFYGDSVK, GRAAGTFDS. Scale: log10 of Kd in nM, estimated from mating counts; low values are strong binders. "ND" marks a missing value. The strain was present, yet no cells mated with the target were sequenced in that replicate, which points to weak or no binding. Parent in this assay: reference entry 0.65, copy in this library 4.11 (one replicate of three). Nonspecific signal, from three strains lacking the peptide, appeared in 15% of pairings of library AAYL49, centred on 4.06 (5% of these signals below 2.83); values are not corrected for it. For each scFv, signals with the empty controls are counted beside the result, with their mean in brackets.

CDR-H1,CDR-H2,CDR-H3,"replicates, log10 nM",signal with controls
GFTLNSYGIS,VIYSDGRRPFYGDSVK,WRAAGTFDS,4.29 / ND / 3.95,2 of 9 (3.56)
GFTLNSYGIS,VIYSDGRRIFYGDYVK,GRAEGTFDS,ND / ND / ND,1 of 9 (4.45)
GFTLNSYGIS,QIYSDGRRTFYGASVW,GRAAGTFDS,ND / ND / ND,0 of 9
GFTLNSQGIS,VLYSDGRRTFYGDSKK,GRAAGTFDS,ND / 5.02 / ND,3 of 9 (4.67)
GFTLNYYGIS,VIYSRGRRTFYGDSVK,RRAAGTFDS,ND / 5.82 / 3.83,3 of 9 (4.38)
GFTLMSYGIS,VIYSDGWRTFYGDSVK,GRAAGTFTS,3.29 / ND / ND,2 of 9 (3.98)
GFTLCSYGIS,VIYSDGRRTFYGDDVK,GRTAGTFDS,1.02 / 1.24 / 1.31,2 of 9 (4.12)
GFTLNSYAIS,VIYSDGRRGFYADSVK,GRAAGTFDS,ND / ND / ND,2 of 9 (2.51)
GFTLNSYGKS,VIYSDGRRTFYGDSVK,GGAAGTWDS,ND / ND / ND,0 of 9
GYTLNSYGIS,VSMSDGRRTFYGDSVK,GRAAGTFDS,3.19 / ND / ND,0 of 9
GFTLNSYGIS,VIDSDGRRTYYGDSVK,GRAAGTFTS,ND / ND / ND,1 of 9 (3.61)
GFVLNSYEIS,VIYSDGRRTFYGDSVK,GRALGTFDS,4.03 / ND / 3.72,2 of 9 (4.26)
GFTLNSYGIS,VIYSDGRRTFYGGSVK,GRCAGYFDS,ND / ND / ND,0 of 9
LYTINSYGIS,VIYSDGRRTFYGDSVK,GRAAGTFDS,ND / 2.34 / 2.61,1 of 9 (4.04)
CFTLNSYGIS,VIYSDGRRTFYGESVK,GRLAGTFDS,ND / 2.64 / 4.31,0 of 9
IFTLNSYGIS,VIYSDGRRKFYGDSVK,GRAAGTFDN,4.25 / 2.67 / 3.99,0 of 9
GFTLNSYHIS,KIYSDGRRTFYGDWVK,GRAAGTFDS,ND / 3.79 / 6.50,6 of 9 (4.76)
GFTMNSYGIS,VIQSDGRRTFYTDSVK,GRAAGTFDS,ND / ND / ND,1 of 9 (3.85)
GFTLNSYGIS,VIYKDGRGTFYGDSVK,GRAAMTFDS,ND / ND / ND,2 of 9 (3.89)
GFTGNSYGIS,VIYSDGRRTFYGDSVK,GRACGTIDS,ND / ND / ND,1 of 9 (3.73)
GFTLNSYGIS,VIPSDGRRTFYGGSVK,GRAAGTTDS,ND / ND / 4.65,2 of 9 (4.63)
GFTLNSEGIS,VVYSLGRRTFYGDSVK,GRAAGTFDS,5.84 / ND / ND,4 of 9 (5.00)
GFTLNSYGIS,VIYSDWRRTFCGDSFK,GRAAGTFDS,ND / ND / ND,1 of 9 (3.60)
GFTLNSYGIS,VIYSDGRRTFYGDSYK,GRAAGTFDS,ND / ND / 2.07,0 of 9
GFTLNSYGQS,VIYSWGRRTFYGDSVK,GRAAGTFDS,ND / 3.68 / 3.94,2 of 9 (4.29)
QFTLNSYGIS,VIYNDGRRTFYGDSVK,GRAAGTYDS,ND / ND / ND,0 of 9
GFTLNSYGIS,VIYLDGRMTFYGDSVK,VRAAGTFDS,ND / ND / ND,0 of 9
GFTLNSYGIS,VIQSDHRRTFYGDSVF,GRAAGTFDS,4.14 / 5.22 / ND,6 of 9 (3.96)
GFTLNSYGIS,VIYSDGRRTFYGVSVE,GRAAETFDS,ND / ND / ND,0 of 9
HFTLNSYGIS,VIASDGRRTFYGDSVK,GRAAGYFDS,4.05 / 4.33 / ND,2 of 9 (4.17)
GFTLFSYGIS,VIYSDGRRTFYGDSVK,TRASGTFDS,ND / 4.31 / ND,1 of 9 (2.91)
GFTLNSYGIS,VIYSDGRRTFYIYSVK,GRAAGTFVS,ND / ND / ND,2 of 9 (4.36)
GFTLNSYGSS,VIYSDGRVTFDGDSVK,GRAAGTFDS,ND / 3.90 / 6.16,0 of 9
GFTLNSYGIS,VEYSDVRRTFYGDSVK,GRAAGNFDS,ND / 3.06 / ND,0 of 9
GFTLNSYGIS,VIYSDGRRTFYTDPVK,GRAAGTFDS,1.20 / 1.10 / 1.41,0 of 9
GFTLNSYGPS,VIYSDGVRTFYGDSVK,GRAAGTPDS,ND / ND / ND,0 of 9
GFSLNSYGIS,VIYSDGMRTFYGDSVK,GRAALTFDS,ND / ND / ND,0 of 9
GFMLNSYGIS,VVYSDGRRTFYGDSVK,GRAAGTIDS,ND / ND / ND,1 of 9 (2.29)
GFTHNSYGSS,VIYSDGRRTFYGDTVK,GRAAGTFDS,ND / 5.45 / 5.63,5 of 9 (5.38)
GFTLASYGIS,VIYSDGRRTFYGDSVK,NRAAGRFDS,ND / ND / ND,0 of 9

For reference, 6 entries of the list once more:

| CDR-H1 | CDR-H2 | CDR-H3 | replicates, log10 nM | signal with controls |
|---|---|---|---|---|
| GFTLNSYGIS | VIPSDGRRTFYGGSVK | GRAAGTTDS | ND / ND / 4.65 | 2 of 9 (4.63) |
| GFTLNSYGIS | VIYLDGRMTFYGDSVK | VRAAGTFDS | ND / ND / ND | 0 of 9 |
| GFTLNSYGIS | VIYSDGRRPFYGDSVK | WRAAGTFDS | 4.29 / ND / 3.95 | 2 of 9 (3.56) |
| GFTLNSYGIS | VIYKDGRGTFYGDSVK | GRAAMTFDS | ND / ND / ND | 2 of 9 (3.89) |
| GFTLNSYGIS | VIYSDGRRTFYTDPVK | GRAAGTFDS | 1.20 / 1.10 / 1.41 | 0 of 9 |
| QFTLNSYGIS | VIYNDGRRTFYGDSVK | GRAAGTYDS | ND / ND / ND | 0 of 9 |